Laboratory results published in ChEMBL document CHEMBL4680377, “Discovery of a Novel Series of Pyridone-Based EP3 Antagonists for the Treatment of Type 2 Diabetes” (ACS Med Chem Lett, 2021).
The source made the active and inactive calls. No cut-off for these calls is given here.

Target: T1, Prostaglandin E2 receptor EP3 subtype (Rattus norvegicus) (UniProt P34980)
T1 sequence (whole entry): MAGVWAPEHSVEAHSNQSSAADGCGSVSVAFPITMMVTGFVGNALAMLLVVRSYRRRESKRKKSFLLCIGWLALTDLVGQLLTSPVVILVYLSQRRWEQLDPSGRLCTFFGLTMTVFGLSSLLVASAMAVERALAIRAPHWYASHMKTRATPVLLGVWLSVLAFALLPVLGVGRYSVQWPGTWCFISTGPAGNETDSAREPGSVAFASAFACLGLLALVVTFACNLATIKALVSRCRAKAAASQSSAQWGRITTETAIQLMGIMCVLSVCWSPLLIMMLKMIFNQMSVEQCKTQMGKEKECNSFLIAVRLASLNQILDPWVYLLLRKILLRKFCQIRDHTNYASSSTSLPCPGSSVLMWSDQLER
Assay: Antagonist activity at EP3 in rat INS-1E cells assessed as reversal of sulprostone induced suppression of glucose-stimulated insulin secretion at 0.03 to 10 uM measured after 4 hrs by HTRF assay
Assay type: cell-based
Settings: filed as antagonist, dose 0.03-10 µM

CC(C)C(/C=C1\OC(=O)NC1=O)c1ccc(-c2ccc3cccc(F)c3c2)[nH]c1=O (stereo unspecified)
Activity: Active
